Read-outs that look alike come from different tables or passages of the source.
Key:
CYP3A4 [1] = molecular target: T1, CYP3A4 (Homo sapiens, UniProt P08684); details: microsomes
CYP3A4 [2] = molecular target: T1, CYP3A4; assay: Inhibition of felodipine metabolism in CYP3A4-expressed human intestinal microsomes (HIM); assay type: biochemical; design: microsomes were prepared from donor human livers; tissue BD Biosciences (Pty) Ltd (Woburn, Mass., USA); host or cells: pooled human liver microsomes, 30 donors
Description: In vitro drug metabolism for in vivo correlation often employs HLM. Pre-systemic drug metabolism occurs principally in the intestinal wall and the liver. An HLM inhibitor may not necessarily have the same effect in the intestines although cytochromic morphology might be the same. If this is the case, prospective oral bioavailability must necessarily be absorbed for hepatic activity. An enzyme inhibitor active against intestinal CYP will prevent intestinal pre-systemic metabolism and enhance oral bioavailability. Thus the use of HIM was to investigate the effects of HLM inhibitors on intestinal metabolism for a more reliable extrapolation. The modelled modulators were incubated with felodipine at the predetermined Km value with CYP3A4 expressed HIM. This was for in vivo correlational reliability. Prospective in vivo HLM modulators must be absorbed. It was reasoned that compounds active against HLM may not survive the physicochemical barriers necessary for hepatic absorption. The use of HIM estimates the potential utility of the modelled modulators that are pre-systemically degradable and whose potencies may be lost outside the gastrointestinal tract. […]. Thus, this confirms the potential utility of the modelled pre-systemic enzymatic modulators in oral drug delivery for enhancing the oral bioavailability of various classes of active pharmaceutical compositions.

Protein sequences, listed by entry. Tags and fused reporters are not part of them.
UniProt P08684, whole entry: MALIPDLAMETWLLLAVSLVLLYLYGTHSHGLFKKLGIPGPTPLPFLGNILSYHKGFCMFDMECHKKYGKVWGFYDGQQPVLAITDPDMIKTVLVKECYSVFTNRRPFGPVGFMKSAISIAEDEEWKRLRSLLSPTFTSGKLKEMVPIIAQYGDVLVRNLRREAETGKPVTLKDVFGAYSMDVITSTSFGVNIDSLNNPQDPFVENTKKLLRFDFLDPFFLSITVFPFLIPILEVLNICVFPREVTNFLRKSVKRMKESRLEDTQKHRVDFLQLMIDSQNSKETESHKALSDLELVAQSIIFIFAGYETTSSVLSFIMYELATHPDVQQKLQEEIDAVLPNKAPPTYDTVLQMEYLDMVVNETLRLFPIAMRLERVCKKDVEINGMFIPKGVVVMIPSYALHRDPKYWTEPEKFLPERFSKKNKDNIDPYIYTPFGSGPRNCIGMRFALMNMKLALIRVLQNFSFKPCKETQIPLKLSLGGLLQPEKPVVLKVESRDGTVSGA

% Inhibition in HLM (CYP3A4 [1]): 50% | Highest inhibition (CYP3A4 [1]): 88 | IC50 (CYP3A4 [1]): 16.3 µM | IC50 (mg/mL) (CYP3A4 [1]): 0.1628 mg/mL | % Inhibition in HIM (CYP3A4 [2]): 54.51% | IC50 (CYP3A4 [2]): 15.9 µM
Substance: poly(methyl methacrylate) [Poly(methyl methacrylate) 10000]

From patent US20140037574A1, “PHARMACEUTICAL COMPOSITION” (priority 2010, published 2014)
